# Apparent affinities of Ab-14 variants for a coronavirus HR2 peptide

All variants were tested on one target, the spike HR2 peptide PDVDLGDISGINAS (SARS-CoV-2).

Each scFv is VH, three GGGGS repeats, VL, as in the parent Ab-14, and differs from it in the CDRs of the heavy chain only.
VH: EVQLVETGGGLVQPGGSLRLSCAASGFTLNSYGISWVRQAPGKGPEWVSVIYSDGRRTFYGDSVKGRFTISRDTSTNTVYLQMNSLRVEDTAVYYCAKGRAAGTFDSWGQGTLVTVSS
VL: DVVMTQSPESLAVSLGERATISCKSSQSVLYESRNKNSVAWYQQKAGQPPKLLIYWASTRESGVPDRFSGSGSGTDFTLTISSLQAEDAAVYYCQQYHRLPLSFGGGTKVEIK

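These sequences belong to a second round, designed from the earlier measurements on random variants of the parent. Group labels follow the data file (Ctrl: baseline library sampled from a position-specific scoring matrix, with some repeated check sequences; Rand: our label for a block that the file lists under HC and that is probably the random mutants of the ten best first-round binders; En: ensemble of fine-tuned language models; GP: Gaussian process model; GPLM: also part of the Gaussian process libraries; HC: hill climbing; Gen: genetic algorithm; Gibbs: Gibbs sampling; a sequence that several methods proposed may carry one label only). The assay is AlphaSeq: two haploid yeast populations carry antibody and antigen on their surface. After mating in shaken culture at 30 °C for 16 h, diploids were selected and their barcode pairs sequenced. Each replicate has its own calibration line, from reference interactions of the BCL2 family. There are six technical replicates.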

The parent's heavy chain CDRs are GFTLNSYGIS, VIYSDGRRTFYGDSVK, GRAAGTFDS; each variant's own CDRs replace them letter for letter. Values are log10 of the apparent Kd in nM; lower means stronger binding. The mean shown is taken over the replicates in which the pair was detected. Where no diploid with the target was found in any replicate, the entry reads "nd": below detection, most likely a poor binder, though not proof of it. Background: pairings of all heavy chain designs with three empty control strains gave a value in 1% of cases (median 2.08, 5th percentile 0.84). Values in that range, when seen in few replicates, are hard to tell from nonspecific mating. In the paper, a design with two or fewer of six values counts as a poor binder. The parent sequence was in this pool as ten entries: three were never detected, three once, and four in most replicates, with averages from 0.34 to 2.37. Values of this round are not directly comparable with the first-round values of the same sequences.

| mean, log10 nM | seen in | CDR-H1 | CDR-H2 | CDR-H3 | group |
|---|---|---|---|---|---|
| nd | 0/6 | GFTLNSYGIS | VIYRDGRRTFYGDSVK | HFEAGTFPS | Ctrl |
| -0.44 | 6/6 | GFDLNEYGIS | VIYADGVRTAYVDDVK | GQNAGTFDV | En_Gen |
| nd | 0/6 | GFTLNDYGIS | VIYSNGRRTQYIDSVK | GRAAGTFDS | Rand |
| nd | 0/6 | GFTLNSYGIS | VIYSDGRRTHYGDSVK | GRAAGNFDS | Ctrl |
| nd | 0/6 | GFQLNEYGIS | VIYADGIRSEYADKVK | GGINASFGV | En_Gibbs |
| -0.21 | 6/6 | GFDLNEYGIS | VIYADGKRTVYADSVK | GENAGTFDI | En_Gen |
| nd | 0/6 | GFSLNSFGIS | VDYSDGRRTFYHDSVK | GRAAGTFDS | Ctrl |
| nd | 0/6 | GETLNDYGIS | VIYSDGRRTQYIDSVK | GRAAGTFDS | GP_HC |
| -0.10 | 6/6 | GFDLNEYGIS | VIYADGKRTFYTDSVK | GNAAGTFLV | En_HC |
| nd | 0/6 | GFTLNSYGIS | VIYSDGRRTFYGDSVK | GRAAGTFDW | Ctrl |
| -0.18 | 6/6 | GFDLNEYGIS | VIYADGLRTAYADSVK | GQNAGTFDI | En_Gen |
| -0.68 | 6/6 | GFNLNEYGIS | VIYADGRRTFYADSVK | GNIAGTFDV | En_HC |
| nd | 0/6 | GFTLNSYGIS | VIYSDGRRTFMGDSVK | GRAEGTFDS | Ctrl |
| nd | 0/6 | GFMLNSYGIS | VIYSDGRRTFYGDSVK | GRAAGTFSS | Ctrl |
| -0.04 | 6/6 | GFDLNSYGIS | VIYSDGRRTFYGDSVK | GQTAGTFDT | GP_Gen |
| 0.34 | 6/6 | GFSLNQYGIS | VIYSDGRRTFYHDSVK | GRAAGTFDS | GPLM_HC |
| 1.68 | 6/6 | GFQLNSYGIS | VIYSDGRRTFYSDSVK | GVAAGTFDS | GPLM_HC |
| 0.43 | 6/6 | GFELNSYGIS | VIYSDGRRTFYLDSVK | GQTAGTFDS | GP_Gibbs |
| nd | 0/6 | GFTLNSYGIS | VIYSDGRRTFYGDSVK | GRAAVTFDH | Ctrl |
| nd | 0/6 | GFTLNSYGIS | VIYSDGRRTFYSDSVK | GRAGGPFDS | Rand |
| 1.60 | 5/6 | GFHLNSYGIS | VIYSDGRRTFYGDSVK | GKTAGTFDA | GP_Gen |
| 1.76 | 6/6 | KFDLNSYGIS | VIYSDGKRTFYIDSVK | GRNAGTFDS | GP_Gibbs |
| -0.80 | 6/6 | GFSLNEYGIS | VIYSDGRRTFYTDSVK | GREAGTFDV | GP_HC |
| -0.67 | 6/6 | GFDLNEYGIS | VIYADGVRTAYTDSVK | GHAAGTFDL | En_HC |
| -0.58 | 6/6 | GFDLNEYGIS | VIYADGVRTYYSDSVK | GNVAGTFDV | En_Gen |
| 1.55 | 5/6 | AFNIEDYGIS | VIYADGVRAMYVESVK | GGIAGTFEI | En_Gibbs |
| 0.39 | 6/6 | GFDLNEYGIS | VIYADGKRTAYVDSVK | GQNAGTFDV | En_Gen |
| -0.69 | 5/6 | GFDLDEYGIS | VIYADGMRTAYQDSVK | GNNAGTFDV | En_Gen |
| -0.27 | 6/6 | GFDLNEYGIS | VIYADGMRTFYSDSVK | GNVAGTFDL | En_Gen |
| 3.01 | 2/6 | GADLVEYGIS | VIYADGQRTVYADTVK | GHHGGIFDM | En_Gibbs |
| 0.35 | 6/6 | GFDLEEMGIH | VIYADGIRTAVSNDVK | GNVAGTGDV | En_Gibbs |
| 0.12 | 6/6 | GFDLNEYGIS | VIYADGVRTAYADDVK | GNTAGTFDV | En_Gen |
| nd | 0/6 | GFTLNSYGIS | VIYSDGVRTFYYDSVK | GRAAGTFDS | Ctrl |
| 0.35 | 6/6 | GFTLSSYGIS | VIYSDGKRTFYGDSVK | GRTAGTFDS | GPLM_Gen |
| 0.34 | 6/6 | GFDLDEYGIS | VIYADGRRTFYADSVK | GELAGTFFL | En_HC |
| -0.01 | 6/6 | GFDLNEYGIS | VIYADGMRTAYSDSVK | GEQAGTFDL | En_HC |
| -0.02 | 6/6 | GFTLNEYGIS | VIYSDGRRTFYSDSVK | GQPAGTFDS | GP_HC |
| 0.77 | 4/6 | GNTLNSYGIS | VIYADGRRTMYGDSVK | GRAAGTFDS | Ctrl |
| -0.23 | 6/6 | GFDLNEYGIS | VIYADGRRTFYADSVK | GEAGGTFDM | En_HC |
| nd | 0/6 | GFTLESYGIS | VIYSDGRRTFYGDSVK | GEAAGGFDS | Ctrl |
| nd | 0/6 | GEDLDEYGVS | VIYADGRKQSYSNAVK | GAIAGNFDM | En_Gibbs |
| nd | 0/6 | GSDLNEYGIS | VIYADGHRVSYAENVK | GINMGGIAI | En_Gibbs |
| -0.42 | 6/6 | GFDLNEYGIS | VIYADGRRTAYTDSVK | GQAAGTFDL | En_HC |
| nd | 0/6 | GFDLNEYGIS | VIYADGIRTAYSDQVK | WRDGIVILF | En_Gibbs |
| -1.25 | 6/6 | GFDLNEYGIS | VIYADGRRTFYADSVK | GQLAGTFSQ | En_HC |
| nd | 0/6 | GFTLNSYGKS | VIYSDGRRTFYGDSVK | GRAAGTFDS | Ctrl |
| 0.05 | 6/6 | GFTLNSYGIS | VIYSDGRRTFYADDVK | GQEAGTFDS | GPLM_Gibbs |
| nd | 0/6 | GFTLNSYGIS | VIYSDGRRQFYGDSVK | GRAIGTFVS | Ctrl |
| 1.13 | 5/6 | GFTLNEYGIS | VIYSDGRRTFTTDSVK | GRFAGTFDT | Rand |
| -0.30 | 6/6 | GFDINEYGIS | VIYADGRRTFYTDSVK | GGNAGTFDI | En_HC |
| nd | 0/6 | GFTLNDYGAS | VIYSDGTRTFYGDIVK | GQATGTFDS | Ctrl |
| nd | 0/6 | GFTLNDYGIS | VIYSDGRFTFYGDSVK | GRAALTFIS | Rand |
| nd | 0/6 | GFTLDSYGIS | VIYSDGRRTFYIDSVK | GRAAGTFSS | GP_HC |
| nd | 0/6 | GFTLNSYGIS | VIYSDGRRTFYRDSVK | GRAAGTFDS | Ctrl |
| -0.47 | 6/6 | GFDLNEYGIS | VIYADGKRTFYADSVK | GNVAGTFDI | En_Gen |
| -0.02 | 6/6 | GFTLNSYGIS | VIYSDGLRTFYDDSVK | GRTAGTFDS | GP_Gibbs |
| nd | 0/6 | GFNLEEYGIS | VIYADGVRAAYAENVK | AGGNVIAIG | En_Gibbs |
| 0.93 | 6/6 | GFDLNEYGIS | VIYADGMRTSYSDSVK | GNVAGTFDV | En_Gen |
| 0.16 | 6/6 | GFDLNEYGIS | VIYADGSRTAYADSVK | GGNAGTFDV | En_Gen |
| 0.11 | 6/6 | GFNLDEYGIS | VIYADGRRTFYADSVK | GEHGGTFDT | En_HC |
| nd | 0/6 | GFDLNEYGIS | VIYADGLRTFYTDSVK | GENAGTFDS | En_HC |
| -0.15 | 6/6 | GFDLESYGIS | VIYADGMRTFYADKVK | GENAGTFDI | En_HC |
| nd | 0/6 | GFTLNDYGIS | VIYSDGRRTFYGDSVK | GRAAGTFRK | GPLM_HC |
| nd | 0/6 | GTTLNSFGIS | VIYSDGRRTFYGDSVK | HREAVLFDS | Ctrl |
| -0.94 | 6/6 | GFDLNEYGIS | VIYADGRRTFYHDSVK | GQIAGTFDQ | En_HC |
| -0.41 | 6/6 | GFDLNEYGIS | VIYADGSRTVYSDSVK | GNQAGTFDV | En_HC |

From the list, the first 5 with no signal in any replicate:

CDR-H1,CDR-H2,CDR-H3,group,"mean, log10 nM",seen in
GFTLNSYGIS,VIYRDGRRTFYGDSVK,HFEAGTFPS,Ctrl,nd,0/6
GFTLNDYGIS,VIYSNGRRTQYIDSVK,GRAAGTFDS,Rand,nd,0/6
GFTLNSYGIS,VIYSDGRRTHYGDSVK,GRAAGNFDS,Ctrl,nd,0/6
GFQLNEYGIS,VIYADGIRSEYADKVK,GGINASFGV,En_Gibbs,nd,0/6
GFSLNSFGIS,VDYSDGRRTFYHDSVK,GRAAGTFDS,Ctrl,nd,0/6

Source: Li et al. 2023 (doi:10.1038/s41467-023-39022-2), MIT Lincoln Laboratory and A-Alpha Bio; data file from the FLAb repository.